Values of other authors, collected in US20170276668A1, “NEURAL MICROPHYSIOLOGICAL SYSTEMS AND METHODS OF USING THE SAME” (The Administrators of the Tulane Educational Fund, priority 2014, published 2017).

System: neuronal cell death in vitro
Conditions: cited from earlier work

## O=C1[O][Pt]2([NH][C@@H]3CCCC[C@H]3[NH]2)[O]C1=O [Oxaliplatin]
  Neurotoxic dose: 15 µM
